Target: T1, Low Density Lipoprotein Receptor (LDLR), recombinant (UniProt P01130 22-788, limits assumed)
T1 construct: also called Recombinant LDLR
Test: SPR multi-cycle kinetics, immobilized LDLR, high surfactant preparation (HBS-P+), 1:1 model
Description: The table shown in FIG. 23 illustrates LDLR binding data (SPR), using a high surfactant preparation. Recombinant LDLR was diluted in 10 mM acetate buffer pH 4.5 and amine coupled to a CM5 chip at 1000 RU. Peptides were diluted to 5 μM in running buffer (HBS-P+, 1 mM CaCl2) and serially diluted 1:3 for 5 total concentrations. […] Between cycles, the chip surface was regenerated with 3 injections of 50 mM NaOH/100 mM EDTA. Multi-Cycle Kinetics was performed on a Biacore Insight Evaluation Software and binding kinetics were analyzed with a 1:1 binding model.

B1: T-117 (peptide)
peptide: RSGADALESALKELKRFIREWTLGQSTEELRVRLASHLRKLRKRLLRDADDLQKRLAVYQA
Kd: < 10 µM

B2: T-118 (peptide)
peptide: LVARLLKELTAAMARLGRDAEDIRGNLFQYFDEVWAMLGQSTEELRVRLASHLRKLRKRLLRDADDLQKRLAVYQA
Kd: < 10 µM

Reference: patent US20260115250A1 (CHARACTER BIOSCIENCES, published 2026)
